Assay results published in ChEMBL document CHEMBL1136977, “Carbonic anhydrase activators. Activation of the membrane-associated isoform XV with amino acids and amines” (Bioorg Med Chem Lett, 2009).

Protein sequences, listed by entry. Tags and fused reporters are not part of them. Lines headed by an entry give the natural chain unless they say otherwise; changes in a name come on top.
UniProt P22748: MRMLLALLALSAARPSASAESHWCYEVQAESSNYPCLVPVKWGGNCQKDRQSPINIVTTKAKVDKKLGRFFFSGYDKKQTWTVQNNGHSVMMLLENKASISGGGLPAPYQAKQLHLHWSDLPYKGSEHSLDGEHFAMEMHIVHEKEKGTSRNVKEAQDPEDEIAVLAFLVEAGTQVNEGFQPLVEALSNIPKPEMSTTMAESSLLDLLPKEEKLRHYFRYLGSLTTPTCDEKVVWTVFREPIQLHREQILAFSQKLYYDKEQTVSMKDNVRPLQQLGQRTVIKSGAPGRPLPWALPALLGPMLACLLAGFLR

Columns and labels:
[1] = molecular target: T1, Carbonic anhydrase 15 (Mus musculus) (UniProt Q99N23); assay: Activation of membrane associated mouse recombinant carbonic anhydrase 15 isoform by stopped-flow CO2 hydrase method
T1 sequence (whole entry): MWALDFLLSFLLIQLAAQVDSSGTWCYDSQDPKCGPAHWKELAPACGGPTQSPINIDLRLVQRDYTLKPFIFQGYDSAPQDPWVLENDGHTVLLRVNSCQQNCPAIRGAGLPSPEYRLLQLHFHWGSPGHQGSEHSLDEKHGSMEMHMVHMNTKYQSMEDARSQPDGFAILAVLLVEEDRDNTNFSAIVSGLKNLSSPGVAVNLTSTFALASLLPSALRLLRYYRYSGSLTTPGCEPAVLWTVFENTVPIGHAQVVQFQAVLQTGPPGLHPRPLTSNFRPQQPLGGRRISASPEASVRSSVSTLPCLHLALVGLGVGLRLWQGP

[2] = molecular target: Carbonic anhydrase 4 (Homo sapiens) (UniProt P22748); assay: Activation of human recombinant carbonic anhydrase 4 lacking 20 amino terminal residues by stopped-flow CO2 hydrase method

KA [1]	KA [2]	SMILES
9.5 µM	49.3 µM	N[C@H](Cc1ccccc1)C(=O)O
33.4 µM	36.3 µM	N[C@@H](Cc1ccccc1)C(=O)O
